Assay results taken from PubChem BioAssay AID651614 (The Scripps Research Institute Molecular Screening Center, 2012).
Only a part is listed here, and it is no random draw. Calls of active or inactive are those of the source. Cut-off read from the data, not from the text of the source: active = inhibition above about 44%; inactive = the rest.

Target: Steroidogenic factor 1 (Homo sapiens) (UniProt Q13285)
Assay: inverse agonism at SF1 nuclear receptor – cell-based, luminescence, high throughput, counter-screen for LRH-1 inverse agonist project (AID 651614);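 note: cells cotransfected with StAR promoter reporter and SF1 expression vector; 0% = vehicle on cells with receptor and 100% = vehicle on cells lacking receptor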
Settings: cell-based SF1 luciferase reporter, at 3.6 µM, active compounds read high

SMILES	inhibition
O=[N+]([O-])c1cc([N+](=O)[O-])c(-c2cnn(-c3ccccc3)c2)c([N+](=O)[O-])c1	active: 59.6%
